Chains of the proteins cited; added tags and fusions are not shown.
UniProt Q9Y5Y9, whole entry: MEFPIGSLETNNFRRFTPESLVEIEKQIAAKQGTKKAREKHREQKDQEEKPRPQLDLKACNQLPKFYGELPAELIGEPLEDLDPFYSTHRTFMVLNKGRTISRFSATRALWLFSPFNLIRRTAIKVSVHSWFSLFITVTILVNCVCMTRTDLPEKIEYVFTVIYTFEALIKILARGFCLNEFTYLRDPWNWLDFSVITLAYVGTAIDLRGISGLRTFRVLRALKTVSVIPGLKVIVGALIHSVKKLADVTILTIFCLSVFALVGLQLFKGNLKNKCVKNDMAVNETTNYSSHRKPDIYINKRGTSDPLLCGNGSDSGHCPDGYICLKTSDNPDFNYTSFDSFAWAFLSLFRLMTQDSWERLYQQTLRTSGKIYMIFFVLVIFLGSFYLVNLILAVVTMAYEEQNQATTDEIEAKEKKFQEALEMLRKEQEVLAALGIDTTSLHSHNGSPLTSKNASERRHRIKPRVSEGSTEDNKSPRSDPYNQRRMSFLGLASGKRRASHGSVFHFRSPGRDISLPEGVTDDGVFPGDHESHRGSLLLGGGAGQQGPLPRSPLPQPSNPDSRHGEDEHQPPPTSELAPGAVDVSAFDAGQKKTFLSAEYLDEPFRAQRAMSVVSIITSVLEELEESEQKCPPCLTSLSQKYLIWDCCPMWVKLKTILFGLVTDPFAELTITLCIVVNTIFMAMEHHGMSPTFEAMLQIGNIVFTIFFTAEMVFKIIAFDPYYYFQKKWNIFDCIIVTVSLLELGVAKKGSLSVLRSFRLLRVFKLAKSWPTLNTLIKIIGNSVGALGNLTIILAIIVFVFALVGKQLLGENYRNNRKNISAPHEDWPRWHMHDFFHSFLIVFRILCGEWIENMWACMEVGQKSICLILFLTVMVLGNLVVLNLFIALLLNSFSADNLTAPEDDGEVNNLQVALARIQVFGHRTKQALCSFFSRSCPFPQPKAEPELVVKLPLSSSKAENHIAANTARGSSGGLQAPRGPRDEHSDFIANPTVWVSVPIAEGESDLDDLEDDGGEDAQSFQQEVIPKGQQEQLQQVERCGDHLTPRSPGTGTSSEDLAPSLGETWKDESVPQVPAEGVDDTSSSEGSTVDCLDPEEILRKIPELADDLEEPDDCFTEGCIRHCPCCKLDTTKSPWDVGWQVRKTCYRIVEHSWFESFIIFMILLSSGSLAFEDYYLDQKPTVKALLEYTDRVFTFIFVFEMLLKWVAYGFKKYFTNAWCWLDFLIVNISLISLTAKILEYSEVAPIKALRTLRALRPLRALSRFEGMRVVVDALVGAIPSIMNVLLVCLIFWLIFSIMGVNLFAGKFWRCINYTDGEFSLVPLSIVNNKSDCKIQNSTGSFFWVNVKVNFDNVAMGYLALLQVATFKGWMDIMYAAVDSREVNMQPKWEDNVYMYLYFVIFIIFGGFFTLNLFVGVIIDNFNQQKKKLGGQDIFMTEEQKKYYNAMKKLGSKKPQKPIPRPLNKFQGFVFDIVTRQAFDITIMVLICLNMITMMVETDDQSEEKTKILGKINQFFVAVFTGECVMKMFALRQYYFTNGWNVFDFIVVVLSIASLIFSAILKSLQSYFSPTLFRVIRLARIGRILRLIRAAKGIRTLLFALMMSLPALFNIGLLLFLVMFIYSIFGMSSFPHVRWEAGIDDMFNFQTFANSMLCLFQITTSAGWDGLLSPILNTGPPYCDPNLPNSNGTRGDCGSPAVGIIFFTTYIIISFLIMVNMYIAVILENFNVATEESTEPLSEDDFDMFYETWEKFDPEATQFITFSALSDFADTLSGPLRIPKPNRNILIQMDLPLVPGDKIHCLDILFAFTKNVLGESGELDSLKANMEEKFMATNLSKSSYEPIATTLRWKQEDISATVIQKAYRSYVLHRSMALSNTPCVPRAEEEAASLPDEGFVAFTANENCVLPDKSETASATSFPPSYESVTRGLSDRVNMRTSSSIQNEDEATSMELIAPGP

In patent US20230303495A9, “PYRIDINE OXYNITRIDE, PREPARATION METHOD THEREFOR AND USE THEREOF” (Orion Corporation, priority 2019, published 2023):

Assays:
NaV1.8 = NaV1.8 (Homo sapiens, UniProt Q9Y5Y9); test: Whole-cell patch clamp blocking activity against NaV1.8 channel current; settings: read-out: NaV1.8 IC50, CHO cell line stably expressing Nav1.8 (SCN10A: NM_006514)
Description: 1. Test method: patch clamp technique was used to detect the influence of compounds on voltage-gated sodium channel (NaV) 1.1-1.8 subtype current
1) The specific information of the CHO cell line stably expressing the Nav1.8 channel was as follows: SCN10A: NM_006514
2) Cells were cultured in HAM'S/F-12 medium containing 10% fetal bovine serum and 10 μg/mL Blasticidin, 200 μg/mL Hygromycin B and 100 μg/mL Zeocin, culture temperature was 37° C. and the concentration of CO2 was 5%.
5) Patch clamp detection, before the experiment, the cells were separated with 0.25%—trypsin EDTA, inoculated into a 24 well plate with a density of 8*10^3 cells per well (final volume: 500 μL), tetracycline was added thereto, and experimental test was performed on the next day.
1) Extracellular fluid: 140 mM NaCl, 3.5 mM KCl, 2 mM CaCl2, 10 mM HEPES, 1.25 mM NaH2PO4, 1 mM MgCl2, 10 mM Glucose, pH=7.4 (NaOH).
2) Intracellular fluid: 50 mM CsCl, 10 mM NaCl, 10 mM HEPES, 20 mM EGTA, 60 mM CsF, pH=7.2 (CsOH).
The voltage stimulation scheme of whole-cell patch clamp recording of Nav channel current was as follows: first the membrane potential of the cell was clamped at −130 mV, and then the voltage was stepped to −40 mV or −20 mV at 10 mv step intervals for 8 s. […] The peak amplitude of its inward current was measured to determine its half-inactivation voltage.
The cell clamping potential was set at −120 mV. The resting and half-inactivation inhibition of sodium current was measured using double pulse mode. […] The data acquisition was repeated at an interval of 20 s and the current peak was measured at the two test pulses.
When the current of the Nav channel recorded by the whole cell was stable, the drug was administered, after each drug concentration was applied for 5 minutes (or the current was stable), the next concentration would be tested, and multiple concentrations would be tested for each test compound. […] The current detected in each cell in the compound-free external fluid served as its own control group. Multiple cells were detected independently and repeatedly. […]

[1] = In vivo pharmacokinetics of rat, single intravenous injection or oral administration by gavage
Description: In this experimental embodiment, the in vivo pharmacokinetics of rat was evaluated by a single intravenous injection or oral administration by gavage.
Experimental methods and conditions: Male Sprague Dawley rats, all animals were fasted overnight, and the test compound was given 1 mg/Kg (intravenous injection, solvent […]) and 10 mg/Kg (administrated by gavage) respectively, 5, 15, 30 min, 1, 2, 4, 6, 8 and 24 hr after administration, blood was collected through the submandibular vein, about 0.20 mL of each sample was collected, heparin sodium was used for anticoagulation, the samples were placed on ice after the collection, then centrifuged within 1 hour to separate the plasma for testing. The blood drug concentration in plasma was detected by liquid-phase tandem mass spectrometry (LC/MS/MS), and the pharmacokinetic parameters were calculated by the measured concentration.

[2] = intravenous administration 1 mg/kg

| SMILES | IC50 (NaV1.8) | AUCinf ([1]; intragastric (gavage) 10 mg/kg) | Cmax ([1]; intragastric (gavage) 10 mg/kg) | T1/2 ([1]; intragastric (gavage) 10 mg/kg) | F (%) ([1]; intragastric (gavage) 10 mg/kg vs intravenous 1 mg/kg) | AUCinf [1, 2] | CL [1, 2] | T1/2 [1, 2] | VZ [1, 2] |
| --- | --- | --- | --- | --- | --- | --- | --- | --- | --- |
| O=C(Nc1ccc[n+]([O-])c1)c1c(Oc2ccc(OC(F)(F)F)c(F)c2)ccc(C(F)(F)F)c1F | 3 nM |  |  |  |  |  |  |  |  |
| COc1cc(OC(F)(F)F)ccc1Oc1ccc(C(F)(F)F)c(F)c1C(=O)Nc1ccc[n+]([O-])c1 | 1.3 nM |  |  |  |  |  |  |  |  |
| O=C(Nc1ccc[n+]([O-])c1)c1cc(C(F)(F)F)c(Cl)cc1Oc1ccc(OC(F)(F)F)cc1 | 6.7 nM | 12373.07 ng·h/mL | 3543.33 ng/mL | 1.61 h | 51.54% | 2400.69 ng·h/mL | 7.61 mL/min/kg | 0.67 h | 0.44148 L/kg |
